# According to PubChem BioAssay AID436 (Emory University Molecular Libraries Screening Center, 2006):
# Protein sequences, listed by entry. Tags and fused reporters are not part of them.
# UniProt Q92560, whole entry: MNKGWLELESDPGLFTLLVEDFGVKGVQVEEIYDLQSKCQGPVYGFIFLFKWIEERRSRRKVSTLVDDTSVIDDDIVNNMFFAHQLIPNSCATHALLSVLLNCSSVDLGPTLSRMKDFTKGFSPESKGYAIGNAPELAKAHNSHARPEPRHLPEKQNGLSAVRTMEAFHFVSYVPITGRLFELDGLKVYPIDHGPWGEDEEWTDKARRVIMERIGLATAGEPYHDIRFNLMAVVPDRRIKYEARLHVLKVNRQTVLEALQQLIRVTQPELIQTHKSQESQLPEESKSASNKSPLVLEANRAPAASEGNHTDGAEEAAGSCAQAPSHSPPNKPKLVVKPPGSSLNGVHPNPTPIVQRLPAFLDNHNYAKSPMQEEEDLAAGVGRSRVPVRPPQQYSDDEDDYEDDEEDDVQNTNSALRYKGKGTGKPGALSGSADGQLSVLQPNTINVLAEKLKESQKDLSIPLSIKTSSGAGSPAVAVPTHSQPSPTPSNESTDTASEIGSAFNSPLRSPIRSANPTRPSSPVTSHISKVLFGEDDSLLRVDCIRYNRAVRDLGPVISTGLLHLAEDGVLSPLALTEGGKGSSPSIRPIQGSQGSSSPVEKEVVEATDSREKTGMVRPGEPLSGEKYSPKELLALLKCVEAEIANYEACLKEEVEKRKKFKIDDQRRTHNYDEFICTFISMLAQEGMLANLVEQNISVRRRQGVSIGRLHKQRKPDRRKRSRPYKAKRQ
# This is a selection; strong and weak results do not stand in their true shares. Active and inactive are the calls of the source.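 How the source made its calls: active means activity remaining at or below 50% of control, provided the compound also passes the data quality filters; inactive means the rest, including low values that fail the filters.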
# Target: Ubiquitin carboxyl-terminal hydrolase BAP1 (Homo sapiens) (UniProt Q92560)
# Test: inhibitors of BAP1 deubiquitinase, primary screen, biochemical, Ub-AMC fluorescence, kinetic (AID 436);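 further: 100% = DMSO wells rate and 0% = substrate alone blank rate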
# Conditions: recombinant BAP1, Ub-AMC hydrolysis fluorescence kinetic; at 20 µM; active compounds read low
row,SMILES,activity remaining (% of control)
1,N/C(=N\O)c1c(N)no[n+]1[O-],inactive: 95.7%
2,Fc1ccccc1NC1CCN(Cc2ccccc2)CC1,inactive: 88.8%
3,CCC(CO)(C(=O)OC1CN2CCC1CC2)c1ccccc1 (configuration not stated),inactive: 96.8%
4,CCOc1ncccc1C(=O)NCC1(N2CCOCC2)CCCCC1,inactive: 101%
5,O=C(OC1CN2CCC1CC2)C1c2ccccc2Oc2ccccc21 (configuration not stated),inactive: 84%
6,COc1ccc(NC2CCN(CCc3ccccc3)CC2)c(OC)c1,inactive: 108%
7,N#CC1(Nc2ccccc2)CCN(CCc2ccccc2)CC1,inactive: 109%
